Measured values as given in ChEMBL document CHEMBL1138049, “Evaluation of small-molecule modulators of the luteinizing hormone/choriogonadotropin and thyroid stimulating hormone receptors: structure-activity relationships and selective binding patterns” (J Med Chem, 2006).

Chains of the proteins cited; added tags and fusions are not shown. Lines headed by an entry give the natural chain unless they say otherwise; changes in a name come on top.
UniProt P22888: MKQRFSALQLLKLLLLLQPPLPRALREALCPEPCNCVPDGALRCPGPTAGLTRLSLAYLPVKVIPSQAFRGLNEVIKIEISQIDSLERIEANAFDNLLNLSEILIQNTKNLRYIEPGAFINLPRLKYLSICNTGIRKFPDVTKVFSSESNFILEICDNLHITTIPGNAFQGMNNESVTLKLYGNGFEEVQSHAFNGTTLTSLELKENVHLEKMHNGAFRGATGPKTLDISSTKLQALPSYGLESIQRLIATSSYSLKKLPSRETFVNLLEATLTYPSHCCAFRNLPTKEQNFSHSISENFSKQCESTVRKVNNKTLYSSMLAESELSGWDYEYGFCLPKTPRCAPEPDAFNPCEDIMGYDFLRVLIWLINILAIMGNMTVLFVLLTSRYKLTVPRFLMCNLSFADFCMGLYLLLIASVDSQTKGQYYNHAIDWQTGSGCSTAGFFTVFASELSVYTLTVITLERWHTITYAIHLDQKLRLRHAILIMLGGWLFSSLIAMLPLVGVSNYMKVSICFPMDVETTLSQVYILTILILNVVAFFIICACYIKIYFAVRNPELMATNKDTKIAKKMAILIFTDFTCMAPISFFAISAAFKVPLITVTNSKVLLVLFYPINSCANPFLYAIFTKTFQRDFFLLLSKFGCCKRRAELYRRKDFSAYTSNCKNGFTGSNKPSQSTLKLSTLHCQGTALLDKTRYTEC

Biological target: Lutropin-choriogonadotropic hormone receptor (Homo sapiens) (UniProt P22888)
Assay: Agonist activity at LHCGR expressed in HEK293 EM cells measured by intracellular cAMP accumulation relative to LH
Assay type: functional, cell-based
How it was run: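 Human LHCGR stably expressed in HEK 293 EM cells, cultured 48 h, then incubated 1 h in serum-free DMEM with 1 mM IBMX and compound (0-100 µM) at 5% CO₂. Cells were lysed and cAMP measured by enzyme immunoassay. EC50 and 95% CI came from dose-response curves. Efficacy is % of maximal response to human LH (1000 ng/ml). Two independent experiments, each in duplicate.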

Compound: CSc1nc(-c2cccc(F)c2)c2c(N)c(C(=O)NC(C)(C)C)sc2n1
- Efficacy: 51.1%
